Target: human recombinant PDE10A (Homo sapiens, UniProt Q9Y233)
Test: Inhibition of human recombinant PDE10A ([3H]-cAMP SPA, Method B)
Type: biochemical
Details: read-out: PDE10 inhibition IC50 [nM] PDE10A human

The chains behind the UniProt entries cited, without tags or fusion partners. Residues count along the entry.
UniProt Q9Y233, 1-779 isoform 1: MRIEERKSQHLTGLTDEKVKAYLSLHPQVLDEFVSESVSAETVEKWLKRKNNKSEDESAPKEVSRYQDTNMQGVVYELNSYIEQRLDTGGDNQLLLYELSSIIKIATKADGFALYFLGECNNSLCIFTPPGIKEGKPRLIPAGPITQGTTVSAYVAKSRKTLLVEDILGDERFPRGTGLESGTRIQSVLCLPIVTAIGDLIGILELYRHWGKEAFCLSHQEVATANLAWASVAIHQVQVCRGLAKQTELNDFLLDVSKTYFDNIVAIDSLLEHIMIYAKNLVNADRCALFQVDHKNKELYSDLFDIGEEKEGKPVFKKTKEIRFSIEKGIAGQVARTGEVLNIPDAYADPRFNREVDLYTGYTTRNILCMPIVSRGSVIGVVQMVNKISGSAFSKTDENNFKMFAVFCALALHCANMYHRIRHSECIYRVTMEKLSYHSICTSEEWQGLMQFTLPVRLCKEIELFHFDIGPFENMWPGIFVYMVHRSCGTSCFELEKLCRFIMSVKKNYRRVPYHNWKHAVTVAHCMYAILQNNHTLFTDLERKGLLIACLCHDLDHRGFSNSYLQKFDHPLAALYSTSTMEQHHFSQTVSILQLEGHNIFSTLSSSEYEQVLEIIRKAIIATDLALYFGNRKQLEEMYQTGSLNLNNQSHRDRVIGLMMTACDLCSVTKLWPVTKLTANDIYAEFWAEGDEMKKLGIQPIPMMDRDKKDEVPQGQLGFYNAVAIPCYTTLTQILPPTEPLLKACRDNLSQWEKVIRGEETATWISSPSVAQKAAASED

IC50: 10 to 100 nM
Structure (SMILES): CCCc1nc(C)c2c(Cl)nc3ccc(OCC4CC4)cc3n12

Reference: patent US7875618B2, “Substituted imidazo[1,5-a]quinoxalines useful as inhibitors of phosphodiesterase 10 for the treatment of neurological and other disorders” (Wyeth, priority 2007, dated 2011)
